The text below walks through data of US20240122990A1, “COMPOSITIONS AND METHODS FOR CARDIOMYOCYTE TRANSPLANTATION” (UNIVERSITY OF WASHINGTON, priority 2021, published 2024).

In the assay the test system is riPSC-CM cardiomyocyte grafts. Briefly: Allogeneic rhesus iPSC-CM transplantation into MHC-mismatched rhesus recipients, histopathological immune rejection of the graft. The class given is in vivo, rhesus macaque (Macaca mulatta). Particulars: subcutaneous ABT alone, 12.5 mg/kg biweekly; 8 weeks post-transplant; 200×10^6 riPSC-CMs. The text has this:
FIG. 1. Histological analysis showing that without immunosuppression, cardiomyocyte grafts survived for 2 weeks without rejection, but by 8 weeks they underwent severe cellular rejection with extensive inflammatory infiltration.
Pluripotent stem cell-derived cardiomyocyte (PSC-CM) transplantation is an emerging strategy to treat recent myocardial infarction (MI). […] To identify a minimal, steroid-sparing immunosuppression regimen for first-in-human allogeneic transplantation, a non-human primate (NHP) model was developed where rhesus iPSC-CM are transplanted into normal or infarcted hearts of MHC-mismatched recipients. Allogeneic iPSCs derived from rhesus macaque (Macaca mulatta) were differentiated into a highly enriched population of cardiomyocytes (riPSC-CMs). 200×10^6 riPSC-CMs were transplanted into 11 MHC-mismatched rhesus recipients. The primary study endpoint was the degree of histopathological immune rejection. In the absence of immunosuppression, cardiomyocyte grafts survived for 2 weeks without rejection, but by 8 weeks they underwent severe cellular rejection with extensive inflammatory infiltration by CD3+ T cells and CD20+ B cells leading to graft destruction. Subsequent studies focused on 8-week engraftment, with promising regimens studied further out to 16 weeks. […]

Take “Abatacept: fusion protein of a modified Fc region of IgG1 fused to the extracellular domain of CTLA-4”: the “degree of histopathological immune rejection of the graft” value is reported as “moderate to severe rejection”.
